Reference: ChEMBL document CHEMBL4480430, “Advances in inhibition of protein-protein interactions targeting hypoxia-inducible factor-1 for cancer therapy” (Bioorg Med Chem, 2019)

Sequences of proteins named here, by UniProt entry; tags and fusion partners are left off.
UniProt Q09472, whole entry: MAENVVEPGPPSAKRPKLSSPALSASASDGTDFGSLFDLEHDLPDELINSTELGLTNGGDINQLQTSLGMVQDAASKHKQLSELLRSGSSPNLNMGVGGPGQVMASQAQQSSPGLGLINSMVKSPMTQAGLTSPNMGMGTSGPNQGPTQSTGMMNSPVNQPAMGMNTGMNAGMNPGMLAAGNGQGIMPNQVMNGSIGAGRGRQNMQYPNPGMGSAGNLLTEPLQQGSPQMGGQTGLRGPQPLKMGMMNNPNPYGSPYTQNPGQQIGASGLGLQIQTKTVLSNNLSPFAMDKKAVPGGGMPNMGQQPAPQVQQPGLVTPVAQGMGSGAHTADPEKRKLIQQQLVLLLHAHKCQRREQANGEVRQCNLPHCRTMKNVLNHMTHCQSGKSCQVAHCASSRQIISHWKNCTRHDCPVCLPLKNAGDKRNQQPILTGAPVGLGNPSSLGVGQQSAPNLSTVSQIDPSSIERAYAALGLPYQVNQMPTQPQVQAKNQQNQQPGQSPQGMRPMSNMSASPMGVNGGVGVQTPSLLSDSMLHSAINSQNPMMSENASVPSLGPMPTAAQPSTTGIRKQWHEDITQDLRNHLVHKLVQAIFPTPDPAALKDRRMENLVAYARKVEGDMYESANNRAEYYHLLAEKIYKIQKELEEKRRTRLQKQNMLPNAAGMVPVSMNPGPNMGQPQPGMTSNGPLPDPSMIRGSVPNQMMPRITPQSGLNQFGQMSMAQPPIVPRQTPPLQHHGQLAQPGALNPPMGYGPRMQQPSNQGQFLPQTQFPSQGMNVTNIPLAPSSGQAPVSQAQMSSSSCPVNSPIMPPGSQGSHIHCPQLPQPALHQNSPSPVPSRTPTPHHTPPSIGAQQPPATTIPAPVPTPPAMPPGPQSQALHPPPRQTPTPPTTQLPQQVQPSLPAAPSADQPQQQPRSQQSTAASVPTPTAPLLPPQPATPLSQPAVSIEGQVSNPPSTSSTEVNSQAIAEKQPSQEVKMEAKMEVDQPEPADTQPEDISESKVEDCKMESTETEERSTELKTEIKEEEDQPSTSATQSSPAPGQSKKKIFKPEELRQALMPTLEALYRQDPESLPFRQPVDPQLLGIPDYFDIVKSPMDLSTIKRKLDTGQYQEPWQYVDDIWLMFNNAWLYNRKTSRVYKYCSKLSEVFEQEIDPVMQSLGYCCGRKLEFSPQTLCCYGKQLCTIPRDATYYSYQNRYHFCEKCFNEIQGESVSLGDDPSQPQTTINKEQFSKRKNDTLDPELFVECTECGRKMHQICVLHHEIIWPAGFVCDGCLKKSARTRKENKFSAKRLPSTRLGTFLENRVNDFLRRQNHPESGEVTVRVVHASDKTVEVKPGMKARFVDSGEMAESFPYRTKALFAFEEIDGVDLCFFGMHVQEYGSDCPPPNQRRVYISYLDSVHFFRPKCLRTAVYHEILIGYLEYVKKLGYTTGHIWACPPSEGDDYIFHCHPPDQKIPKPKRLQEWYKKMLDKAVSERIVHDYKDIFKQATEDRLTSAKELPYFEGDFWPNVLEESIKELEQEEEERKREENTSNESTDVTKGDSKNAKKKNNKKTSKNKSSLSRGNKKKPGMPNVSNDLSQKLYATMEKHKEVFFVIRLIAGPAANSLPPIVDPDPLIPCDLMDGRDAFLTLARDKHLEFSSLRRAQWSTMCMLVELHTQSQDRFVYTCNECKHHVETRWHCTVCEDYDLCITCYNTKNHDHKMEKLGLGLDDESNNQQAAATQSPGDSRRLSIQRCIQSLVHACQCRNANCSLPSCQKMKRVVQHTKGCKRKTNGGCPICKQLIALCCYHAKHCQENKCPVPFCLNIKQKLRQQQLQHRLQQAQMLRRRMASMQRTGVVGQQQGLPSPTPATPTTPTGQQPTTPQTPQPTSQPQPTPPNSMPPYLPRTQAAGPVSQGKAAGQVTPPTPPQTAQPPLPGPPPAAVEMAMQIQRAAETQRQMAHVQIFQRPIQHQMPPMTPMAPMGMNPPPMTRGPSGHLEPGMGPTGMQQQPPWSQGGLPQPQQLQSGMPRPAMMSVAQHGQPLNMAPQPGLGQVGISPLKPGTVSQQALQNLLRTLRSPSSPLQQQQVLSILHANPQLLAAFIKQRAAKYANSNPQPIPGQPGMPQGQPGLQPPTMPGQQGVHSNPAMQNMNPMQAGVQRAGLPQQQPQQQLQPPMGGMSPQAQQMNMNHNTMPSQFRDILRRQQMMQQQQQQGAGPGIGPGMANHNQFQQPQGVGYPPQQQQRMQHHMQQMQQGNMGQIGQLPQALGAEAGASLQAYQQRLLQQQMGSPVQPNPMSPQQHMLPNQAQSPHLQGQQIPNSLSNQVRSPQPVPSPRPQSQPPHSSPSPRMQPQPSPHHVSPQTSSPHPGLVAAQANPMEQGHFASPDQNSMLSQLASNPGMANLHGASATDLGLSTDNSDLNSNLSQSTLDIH

What was measured:
[1] = molecular target: T1, Histone acetyltransferase p300 (Homo sapiens, UniProt Q09472); assay: Binding affinity to p300 (unknown origin) by ITC assay
[2] = molecular target: T1, Histone acetyltransferase p300; assay: Binding affinity to p300 (unknown origin) by fluorescence anisotrophy

## CC[C@H](C)[C@H](NC(=O)[C@@H]1CCCN1C(=O)[C@H](C)NC(=O)[C@H](CC(N)=O)NC(=O)[C@@H](NC(=O)[C@H](CCC(=O)O)NC(=O)[C@H](CS)NC(=O)[C@H](CC(=O)O)NC(=O)[C@H](Cc1ccc(O)cc1)NC(=O)[C@H](CO)NC(=O)[C@@H](NC(=O)[C@H](CC(C)C)NC(=O)[C@H](CCC(N)=O)NC(=O)[C@@H]1CCCN1C(=O)[C@H](CC(C)C)NC(=O)CNC(=O)[C@H](CO)NC(=O)[C@H](CCC(=O)O)NC(=O)[C@H](CC(=O)O)NC(=O)[C@H](CCSC)NC(=O)[C@@H](N)CO)[C@@H](C)O)C(C)C)C(=O)N[C@@H](CCC(N)=O)C(=O)NCC(=O)N[C@@H](CO)C(=O)N[C@@H](CCCNC(=N)N)C(=O)N[C@@H](CC(N)=O)C(=O)N[C@@H](CC(C)C)C(=O)N[C@@H](CC(C)C)C(=O)N[C@@H](CCC(N)=O)C(=O)NCC(=O)N[C@@H](CCC(=O)O)C(=O)N[C@@H](CCC(=O)O)C(=O)N[C@@H](CC(C)C)C(=O)N[C@@H](CC(C)C)C(=O)N[C@@H](CCCNC(=N)N)C(=O)N[C@@H](C)C(=O)N[C@@H](CC(C)C)C(=O)N[C@@H](CC(=O)O)C(=O)N[C@@H](CCC(N)=O)C(=O)N[C@H](C(=O)N[C@@H](CC(N)=O)C(=O)O)C(C)C
[1]
  Kd: 45 nM
[2]
  Kd: 16 nM
